From BindingDB's records for US10829480

Sequences of proteins named here, by UniProt entry; tags and fusion partners are left off. A change or cut given only in a name is not applied to a line headed by its entry.
UniProt P41146: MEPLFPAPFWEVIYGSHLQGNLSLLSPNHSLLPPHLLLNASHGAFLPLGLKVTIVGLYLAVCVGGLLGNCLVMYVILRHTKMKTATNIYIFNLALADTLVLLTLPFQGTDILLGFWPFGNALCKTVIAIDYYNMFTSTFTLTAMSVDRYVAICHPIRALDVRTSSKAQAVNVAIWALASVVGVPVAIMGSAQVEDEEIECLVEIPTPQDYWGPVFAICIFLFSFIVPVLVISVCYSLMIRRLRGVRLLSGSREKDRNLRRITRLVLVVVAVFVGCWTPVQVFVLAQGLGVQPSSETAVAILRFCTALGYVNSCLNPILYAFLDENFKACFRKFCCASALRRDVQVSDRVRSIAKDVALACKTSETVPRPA
UniProt P35372, whole entry, looked up: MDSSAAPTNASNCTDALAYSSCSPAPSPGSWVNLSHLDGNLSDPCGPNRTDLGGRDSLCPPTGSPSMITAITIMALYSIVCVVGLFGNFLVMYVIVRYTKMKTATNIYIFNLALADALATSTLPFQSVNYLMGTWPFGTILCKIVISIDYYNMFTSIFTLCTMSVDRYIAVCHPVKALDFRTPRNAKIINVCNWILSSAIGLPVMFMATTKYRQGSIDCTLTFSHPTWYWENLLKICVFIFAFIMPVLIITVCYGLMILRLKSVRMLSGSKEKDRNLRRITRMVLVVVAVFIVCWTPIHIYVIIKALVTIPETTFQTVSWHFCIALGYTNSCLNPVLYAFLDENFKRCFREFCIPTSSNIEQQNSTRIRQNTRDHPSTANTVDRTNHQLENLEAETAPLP

Columns and labels:
Nociceptin receptor = Nociceptin receptor (Homo sapiens, UniProt P41146); assay: Receptor Binding Assay
Mu-type opioid receptor = Mu-type opioid receptor (Homo sapiens, UniProt P35372); assay: Receptor Binding Assay

Row | SMILES | Ki (Nociceptin receptor) [nM] | Ki (Mu-type opioid receptor) [nM]
1 | COc1ccc(CN2C[C@]3(CC[C@](c4ccccc4)(N(C)C)CC3)N(CC[S+](C)[O-])C2=O)cc1 (stereo partly specified) | 630 | 
2 | COc1ccc(CN2C[C@]3(CC[C@](c4ccccc4)(N(C)C)CC3)N(CC3CCOC3)C2=O)cc1 (stereo partly specified) | 22.5 | 
3 | COc1ccc(CN2C[C@]3(CC[C@](c4ccccc4)(N(C)C)CC3)N(CC3COC3)C2=O)cc1 | 36 | 1040
4 | CN(C)[C@]1(c2ccccc2)CC[C@]2(CC1)CN(Cc1ccc(O)cc1)C(=O)N2CC1CCC1 | 1.8 | 73
5 | CN(C)[C@]1(c2ccccc2)CC[C@]2(CC1)CN(C(C)(C)c1ccccc1)C(=O)N2CC1(O)CCC1 | 8.15 | 235
6 | COc1ccc(CN2C[C@]3(CC[C@](c4ccccc4)(N(C)C)CC3)N(CCC(N)=O)C2=O)cc1 | 620 | 
7 | CN(C)[C@]1(c2ccccc2)CC[C@]2(CC1)CN(Cc1cccnc1)C(=O)N2CC1CCC1 |  | 86.5
8 | CN[C@]1(c2ccccc2)CC[C@]2(CC1)CN(Cc1cn(CC(N)=O)nn1)C(=O)N2CC1(O)CCC1 | 100 | 295
9 | COC(=O)CN1C(=O)N(Cc2ccc(OC)cc2)C[C@]12CC[C@](c1ccccc1)(N(C)C)CC2 | 21 | 1040
10 | COc1ccc(C#N)cc1CN1C[C@]2(CC[C@](c3ccccc3)(N(C)C)CC2)N(Cc2cc(C#N)ccc2OC)C1=O | 16.5 | 1540
